Data published in paper PMC12836348, “Alanine Mutagenesis Identifies Specific Amino Acids of Nemertide Alpha‑1 Activity and Its Binding to Target Receptors” (Journal of Natural Products, 2025).

Test system: Nav1.8
Assay: Ion channel panel, Nav1.8
Assay type: cell-based
Parameters: key: “+” means tested and produced effect; “–“ means tested but no effect
Details: S12A at 5 μM; Xenopus oocytes, n ≥ 3
Method: For the expression of NaV channels (hNav1.1, rNaV1.2, rNaV1.3, rNaV1.4, hNaV1.5, hNaV1.6, hNav1.7, and the insect channel BgNaV1) in Xenopus laevis oocytes, the linearized plasmids were transcribed using the T7 or SP6 mMESSAGE-mMACHINE transcription kit (Ambion, Carlsbad, CA, USA). The harvesting of stage V and VI oocytes from an anaesthetized female X. laevis frog was described previously. , Oocytes were injected with 50 nL of cRNA at a concentration of 1 ng/nL using a microinjector (Drummond Scientific, Broomall, PA, USA). The oocytes were incubated in a solution containing 96 mM NaCl, 2 mM KCl, 1.8 mM CaCl2, 2 mM MgCl2, and 5 mM HEPES (pH 7.4), supplemented with 50 mg/L gentamycin sulfate. […] Whole-cell currents from oocytes were recorded 1–4 days after injection. […]
To assess the concentration–response relationships, data were fitted with the Hill equation: y = 100/[1 + (EC50/[toxin])^ h ], where y is the amplitude of the toxin-induced effect (y = I 30 ms/I peak where I 30 ms is the current value at 30 ms in the presence of toxin and I peak is the peak current amplitude in control conditions), EC50 is the toxin concentration at half-maximal efficacy, [toxin] is the toxin concentration, and h is the Hill coefficient. […] ASIC1a currents were measured in ND96 solutions at a pH of 7.4 and 4.5, at a holding potential of −70 mV during 400 s, and the data were filtered at 20 Hz. […]

Question: Which “effect on Nav1.8” value does the source give for `CC[C@H](C)[C@@H]1NC(=O)[C@@H](NC(=O)CN)CSSC[C@@H]2NC(=O)[C@@H]3CSSC[C@@H](C(=O)N[C@@H](CC(N)=O)C(=O)N4C[C@H](O)C[C@H]4C(=O)N4C[C@H](O)C[C@H]4C(=O)N[C@@H](CC(N)=O)C(=O)N[C@@H](CCC(N)=O)C(=O)O)NC(=O)[C@H](CCCCN)NC(=O)[C@H](Cc4ccccc4)NC(=O)[C@H](CC(N)=O)NC(=O)[C@H](Cc4c[nH]c5ccccc45)NC(=O)CNC(=O)[C@H](CSSC[C@H](NC(=O)[C@H](Cc4ccccc4)NC(=O)[C@H](CO)NC(=O)CNC(=O)[C@H]([C@@H](C)O)NC(=O)[C@H](C)NC1=O)C(=O)N[C@@H]([C@@H](C)O)C(=O)N[C@@H](CC(C)C)C(=O)N[C@@H](C)C(=O)N[C@@H](CCCCN)C(=O)NCC(=O)N3)NC(=O)[C@H](CC(N)=O)NC(=O)[C@H](CCCCN)NC(=O)[C@H]([C@@H](C)O)NC2=O` [Peptide S12A] here?
Answer: Its value is “–”.
